Reference: US20250381183A1, “TARGETING S100A9-ALDH1A1-RETINOIC ACID SIGNALING TO SUPPRESS BRAIN RELAPSE IN EGFR-MUTANT LUNG CANCER” (The Trustees of Columbia University in the City of New York, priority 2022, published 2025)

Legend:
H1650-Tr-BrM cells = test: Cell viability assay, sensitivity to pan-RAR inhibition, H1650-Tr-BrM; format: cell-based, human; conditions: retinal-treated H1650-Tr-BrM compared to H1650-BrM cells
Experimental: (§1) FIG. 13C: Cell viability assay for comparing in-vitro sensitivity of the indicated cell lines to pan-RAR-inhibition (AGN194310, abbreviated as “AGN”). Cell viability values are normalized to the vehicle (DMSO)-treated control, presented as the mean values±SEM, and representative of three independent experiments. P-values were determined by two-way ANOVA with Tukey's test.

PC9-Tr-BrM cells = test: Cell viability assay, sensitivity to pan-RAR inhibition, PC9-Tr-BrM; format: cell-based, human; conditions: retinal-treated PC9-Tr-BrM compared to PC9-BrM cells
Experimental: as §1

Compound | cytotoxicity with pan-RAR antagonism (cell viability) (H1650-Tr-BrM cells) | cytotoxicity with pan-RAR antagonism (cell viability) (PC9-Tr-BrM cells) | osimertinib-treated mice that developed brain relapse (H1650-BrM cells; H1650-BrM model, after response period) [%] | response period (H1650-BrM cells; H1650-BrM model, osimertinib 5 mg/kg/day) [days] | brain-metastasis-progression-free survival (H1650-BrM cells; H1650-BrM-injected mice, osimertinib 5 mg/kg/day vs vehicle) | progression of cancer cells in the extracranial sites (bone and lymph nodes) (PC9-BrM cells; PC9-BrM model, continuous osimertinib treatment, bioluminescence imaging) | brain relapse and death (PC9-BrM cells; PC9-BrM model, long-term osimertinib 5 mg/kg/day) | brain-metastasis-progression-free survival (PC9-BrM cells; PC9-BrM-injected mice, osimertinib 5 mg/kg body weight/day, five days per week from 25 days post-injection, vehicle 47 days) [days]
CCc1ccc(C2=CC(C)(C)Sc3ccc(C#Cc4ccc(C(=O)O)cc4)cc32)cc1 [AGN-194310] | striking dose-dependent cytotoxicity | striking dose-dependent cytotoxicity |  |  |  |  |  | 
C=CC(=O)Nc1cc(Nc2nccc(-c3cn(C)c4ccccc34)n2)c(OC)cc1N(C)CCN(C)C [osimertinib] |  |  | 100 | 120 | prolonged | did not progress | all drug-treated mice eventually developed brain relapse and died | 144
